Where two headings read alike, the source gives them in different places.
Columns and labels:
[1] = test system: vesicular stomatitis virus (VSV); settings: 16 h
[2] = biological target: viral glycoproteins (H and F); CD150; assay: beta-galactosidase complementation-based fusion assay, CD150 target cells
MeV F wild-type = biological target: T1, MeV F wild-type (Measles virus, UniProt Q786F3); assay: thermal stability of cell-expressed MeV F, pre-fusion conformation specific mAb staining; format: cell-based
T1 construct: expressed in transfected cells; host or cells: 293T
Procedure: Thermal stability of the MeV F wild-type in presence of FIP, HRC, and FIP-HRC peptides. 293T cells expressing MeV F (“WT”) were incubated overnight at 37° C. The cells were then placed at 55° C. for 10 minutes in the presence of increasing concentrations of the indicated peptides. The cells were then incubated at 4° C. with pre-fusion conformation specific mouse mAb (77.4). Secondary antibody anti-mouse conjugated with Alexa 488 was used for detection. Stained cells were identified using a cell analyzer high content image system.
Concentration at which the pre-fusion epitope is 50% (“stable concentration50” or SC50) and 90% (“stable concentration90” or SC90) of the samples not incubated at 10 minutes at 55° C.
Concentration at which the pre-fusion epitope is 50% (“stable concentration50” or SC50) and 90% (“stable concentration900” or SC90) of the samples not incubated at 10 minutes at 55° C.
Cell surface staining with F-conformation-specific mAbs. 293T cells transiently transfected with viral glycoprotein constructs were incubated overnight at 37° C. in complete medium (DMEM, 10% FBS). Thereafter, cells were incubated with mouse monoclonal antibodies (mAbs) that specifically detect MeV F in its pre-fusion conformation (1:1,000) for 1 h on ice. […] Percentages of positively recognized cells were determined using Cell Profiler.

By UniProt entry, the sequences of proteins in these tests, tags left out. Residues count along the entry.
UniProt Q786F3, 113-550: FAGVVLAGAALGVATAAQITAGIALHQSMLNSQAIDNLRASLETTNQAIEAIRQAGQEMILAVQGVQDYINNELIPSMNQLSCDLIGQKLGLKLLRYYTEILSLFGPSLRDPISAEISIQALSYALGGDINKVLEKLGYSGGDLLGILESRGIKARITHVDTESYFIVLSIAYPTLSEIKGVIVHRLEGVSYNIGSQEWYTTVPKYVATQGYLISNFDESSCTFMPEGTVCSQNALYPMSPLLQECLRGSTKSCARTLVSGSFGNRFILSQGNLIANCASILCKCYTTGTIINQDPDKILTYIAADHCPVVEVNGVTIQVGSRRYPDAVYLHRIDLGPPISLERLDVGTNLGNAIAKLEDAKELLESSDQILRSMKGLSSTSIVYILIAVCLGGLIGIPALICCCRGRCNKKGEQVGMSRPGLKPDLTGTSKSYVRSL
UniProt Q786F3, 24-112: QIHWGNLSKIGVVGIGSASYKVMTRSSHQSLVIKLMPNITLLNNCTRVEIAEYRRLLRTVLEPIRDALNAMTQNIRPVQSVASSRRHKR

[3] = test system: HEK293T cells expressing MeV F; assay: localization of peptide in HEK293T cells expressing MeV F; format: cell-based, human; settings: 1 μM peptide, 60 min at 37° C.
Procedure: HEK293T cells expressing MeV F were incubated with peptide (1 μM) for 60 min at 37° C. F protein and HRC-FIP peptide were stained with Alexa Fluor 488 (green, x-axis) and Alexa Fluor 594 (red, y-axis), respectively. Representative of three separate experiments. […] FIP alone (without cholesterol) localizes the HRC to F expressing cells but with lower HRC signal (B). When lipid is present but FIP is missing (C) the HRC is not as specifically localized to the F-expressing cells.
FIGS. 92-93 show FIP-HRC targets MeV F expressing cells. […] HEK293T cell cultures were incubated with peptide (1 μM) for 60 min, at 37° C. F protein and HRC-FIP peptide were stained with Alexa Fluor 488 (green) and Alexa Fluor 594 (red), respectively.

[4] = biological target: viral glycoproteins (H and F); Nectin-4 (Measles virus, UniProt Q786F3); assay: beta-galactosidase complementation-based fusion assay, Nectin-4 target cells
MeV “WTFb” strain = assay: in vivo efficacy, intranasal peptides in MeV-infected cotton rats; settings: intranasal 24 h and 12 h before infection, 5 m/kg dose, 4 days post-infection
Procedure: FIGS. 84-93 further describe the invention. […] Intranasal administration of MeV-derived peptides protects cotton rats from MV infection. Cotton rats (n=4) were infected intranasally with MeV “WTFb” strain. Treatment was given intranasally 24 h and 12 h before infection in 100 ul (5 m/kg dose of peptides). The animals were euthanized 4 days post-infection.

Row | SMILES | IC50 [1] | IC50 [2] | IC90 ([2]; read-out: CD150 IC90) | percentage of F in pre-fusion state (conformational antibody binding) (MeV F wild-type; 293T cells expressing MeV F, 55° C. for 10 minutes, increasing peptide concentrations) | F stabilization, SC50 and SC90 (MeV F wild-type; MeV F (wt), 10 minutes at 55° C.) | localization to F-expressing cells, flow cytometry [3] | localization with F protein, fluorescence imaging [3] | IC50 [4] | IC90 [4] | IC90 ([4]; read-out: Nectin4 IC90) | MeV titration of lung homogenates (MeV “WTFb” strain)
1 | CC[C@H](C)[C@H](NC(=O)[C@H](C)NC(=O)[C@H](CC(N)=O)NC(=O)CNC(=O)[C@H](CC(C)C)NC(=O)[C@H](CC(N)=O)NC(=O)[C@@H](NC(=O)CNC(=O)[C@@H](NC(=O)[C@H](CC(=O)O)NC(=O)[C@H](CC(C)C)NC(=O)[C@H](CCCNC(=N)N)NC(=O)[C@H](CCC(=O)O)NC(=O)[C@H](CC(C)C)NC(=O)[C@H](CO)NC(=O)[C@@H](NC(=O)[C@@H]1CCCN1C(=O)[C@@H]1CCCN1C(=O)CNC(=O)[C@H](CO)NC(=O)CNC(=O)[C@H](CO)NC(=O)CNC(=O)CNC(=O)[C@H](Cc1ccccc1)NC(=O)[C@@H](Cc1ccccc1)NC(=O)OCc1ccccc1)[C@@H](C)CC)C(C)C)[C@@H](C)O)C(=O)N[C@@H](C)C(=O)N[C@@H](CCCCN)C(=O)N[C@@H](CC(C)C)C(=O)N[C@@H](CCC(=O)O)C(=O)N[C@@H](CC(=O)O)C(=O)N[C@@H](C)C(=O)N[C@@H](CCCCN)C(=O)N[C@@H](CCC(=O)O)C(=O)N[C@@H](CC(C)C)C(=O)N[C@@H](CC(C)C)C(=O)N[C@@H](CCC(=O)O)C(=O)N[C@@H](CO)C(=O)N[C@@H](CO)C(=O)N[C@@H](CC(=O)O)C(=O)N[C@@H](CCC(N)=O)C(=O)N[C@H](C(=O)N[C@@H](CC(C)C)C(=O)N[C@@H](CCCNC(=N)N)C(=O)NCC(=O)N[C@@H](CO)C(=O)NCC(=O)N[C@@H](CO)C(=O)NCC(=O)N[C@@H](CSC1CC(=O)N(CCCC(=O)NCCOCCOCCOCCOCCC(=O)NCCN(CCNC(=O)CCOCCOCCOCCOCCNC(=O)CCCN2C(=O)CC(SC[C@H](NC(=O)CNC(=O)[C@H](CO)NC(=O)CNC(=O)[C@H](CO)NC(=O)CNC(=O)[C@H](CCCNC(=N)N)NC(=O)[C@H](CC(C)C)NC(=O)[C@@H](NC(=O)[C@H](CCC(N)=O)NC(=O)[C@H](CC(=O)O)NC(=O)[C@H](CO)NC(=O)[C@H](CO)NC(=O)[C@H](CCC(=O)O)NC(=O)[C@H](CC(C)C)NC(=O)[C@H](CC(C)C)NC(=O)[C@H](CCC(=O)O)NC(=O)[C@H](CCCCN)NC(=O)[C@H](C)NC(=O)[C@H](CC(=O)O)NC(=O)[C@H](CCC(=O)O)NC(=O)[C@H](CC(C)C)NC(=O)[C@H](CCCCN)NC(=O)[C@H](C)NC(=O)[C@@H](NC(=O)[C@H](C)NC(=O)[C@H](CC(N)=O)NC(=O)CNC(=O)[C@H](CC(C)C)NC(=O)[C@H](CC(N)=O)NC(=O)[C@@H](NC(=O)CNC(=O)[C@@H](NC(=O)[C@H](CC(=O)O)NC(=O)[C@H](CC(C)C)NC(=O)[C@H](CCCNC(=N)N)NC(=O)[C@H](CCC(=O)O)NC(=O)[C@H](CC(C)C)NC(=O)[C@H](CO)NC(=O)[C@@H](NC(=O)[C@@H]3CCCN3C(=O)[C@@H]3CCCN3C(=O)CNC(=O)[C@H](CO)NC(=O)CNC(=O)[C@H](CO)NC(=O)CNC(=O)CNC(=O)[C@H](Cc3ccccc3)NC(=O)[C@@H](Cc3ccccc3)NC(=O)OCc3ccccc3)[C@@H](C)CC)C(C)C)[C@@H](C)O)[C@@H](C)CC)[C@@H](C)CC)C(=O)O)C2=O)CCO[C@H]2CC[C@@]3(C)C(=CC[C@H]4[C@@H]5CC[C@H]([C@H](C)CCCC(C)C)[C@@]5(C)CC[C@@H]43)C2)C1=O)C(=O)O)[C@@H](C)CC (single isomer, unassigned) [FIP HRC] | > 5 µM |  |  |  |  |  |  |  |  |  | 
2 | CC[C@H](C)[C@H](NC(=O)[C@H](C)NC(=O)[C@H](CC(N)=O)NC(=O)CNC(=O)[C@H](CC(C)C)NC(=O)[C@H](CC(N)=O)NC(=O)[C@@H](NC(=O)CNC(=O)[C@@H](NC(=O)[C@H](CC(=O)O)NC(=O)[C@H](CC(C)C)NC(=O)[C@H](CCCNC(=N)N)NC(=O)[C@H](CCC(=O)O)NC(=O)[C@H](CC(C)C)NC(=O)[C@H](CO)NC(=O)[C@@H](NC(=O)[C@@H]1CCCN1C(=O)[C@@H]1CCCN1C(=O)CNC(=O)[C@H](CO)NC(=O)CNC(=O)[C@H](CO)NC(=O)CNC(=O)CNC(=O)[C@H](Cc1ccccc1)NC(=O)[C@@H](Cc1ccccc1)NC(=O)OCc1ccccc1)[C@@H](C)CC)C(C)C)[C@@H](C)O)C(=O)N[C@@H](C)C(=O)N[C@@H](CCCCN)C(=O)N[C@@H](CC(C)C)C(=O)N[C@@H](CCC(=O)O)C(=O)N[C@@H](CC(=O)O)C(=O)N[C@@H](C)C(=O)N[C@@H](CCCCN)C(=O)N[C@@H](CCC(=O)O)C(=O)N[C@@H](CC(C)C)C(=O)N[C@@H](CC(C)C)C(=O)N[C@@H](CCC(=O)O)C(=O)N[C@@H](CO)C(=O)N[C@@H](CO)C(=O)N[C@@H](CC(=O)O)C(=O)N[C@@H](CCC(N)=O)C(=O)N[C@H](C(=O)N[C@@H](CC(C)C)C(=O)N[C@@H](CCCNC(=N)N)C(=O)NCC(=O)N[C@@H](CO)C(=O)NCC(=O)N[C@@H](CO)C(=O)NCC(=O)N[C@@H](CSC1CC(=O)N(CCCC(=O)NCCOCCOCCOCCOCCC(=O)NCCN(CCNC(=O)CCOCCOCCOCCOCCNC(=O)CCCN2C(=O)CC(SC[C@H](NC(=O)CNC(=O)[C@H](CO)NC(=O)CNC(=O)[C@H](CO)NC(=O)CNC(=O)[C@H](CCCNC(=N)N)NC(=O)[C@H](CC(C)C)NC(=O)[C@@H](NC(=O)[C@H](CCC(N)=O)NC(=O)[C@H](CC(=O)O)NC(=O)[C@H](CO)NC(=O)[C@H](CO)NC(=O)[C@H](CCC(=O)O)NC(=O)[C@H](CC(C)C)NC(=O)[C@H](CC(C)C)NC(=O)[C@H](CCC(=O)O)NC(=O)[C@H](CCCCN)NC(=O)[C@H](C)NC(=O)[C@H](CC(=O)O)NC(=O)[C@H](CCC(=O)O)NC(=O)[C@H](CC(C)C)NC(=O)[C@H](CCCCN)NC(=O)[C@H](C)NC(=O)[C@@H](NC(=O)[C@H](C)NC(=O)[C@H](CC(N)=O)NC(=O)CNC(=O)[C@H](CC(C)C)NC(=O)[C@H](CC(N)=O)NC(=O)[C@@H](NC(=O)CNC(=O)[C@@H](NC(=O)[C@H](CC(=O)O)NC(=O)[C@H](CC(C)C)NC(=O)[C@H](CCCNC(=N)N)NC(=O)[C@H](CCC(=O)O)NC(=O)[C@H](CC(C)C)NC(=O)[C@H](CO)NC(=O)[C@@H](NC(=O)[C@@H]3CCCN3C(=O)[C@@H]3CCCN3C(=O)CNC(=O)[C@H](CO)NC(=O)CNC(=O)[C@H](CO)NC(=O)CNC(=O)CNC(=O)[C@H](Cc3ccccc3)NC(=O)[C@@H](Cc3ccccc3)NC(=O)OCc3ccccc3)[C@@H](C)CC)C(C)C)[C@@H](C)O)[C@@H](C)CC)[C@@H](C)CC)C(=O)O)C2=O)CCO[C@H]2CC[C@@]3(C)C(=CC[C@H]4[C@@H]5CC[C@H]([C@H](C)CCCC(C)C)[C@@]5(C)CC[C@@H]43)C2)C1=O)C(=O)O)[C@@H](C)CC (single isomer, unassigned) |  | 0.0257 ± 0.0117 µM | 0.124 ± 0.01 µM | most effective at stabilizing F in pre-fusion state | most effective F stabilizer | HRC signal is directly proportional to the F signal | colocalization | 0.023 ± 0.0132 µM | 0.105 ± 0.0561 µM | 0.105 ± 0.0561 µM | most potent inhibitor
